# The list shows a part of the results, in another mix than the full data. Activity calls are given as the source filed them.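 The calls were made as follows: active = activity change below a set negative limit, meaning inhibition stronger than a set level (cut at about -70% in these data); inconclusive = activity change between two set negative limits; inactive = the rest.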
# By UniProt entry, the sequences of proteins in these tests, tags left out.
# UniProt P16473, whole entry: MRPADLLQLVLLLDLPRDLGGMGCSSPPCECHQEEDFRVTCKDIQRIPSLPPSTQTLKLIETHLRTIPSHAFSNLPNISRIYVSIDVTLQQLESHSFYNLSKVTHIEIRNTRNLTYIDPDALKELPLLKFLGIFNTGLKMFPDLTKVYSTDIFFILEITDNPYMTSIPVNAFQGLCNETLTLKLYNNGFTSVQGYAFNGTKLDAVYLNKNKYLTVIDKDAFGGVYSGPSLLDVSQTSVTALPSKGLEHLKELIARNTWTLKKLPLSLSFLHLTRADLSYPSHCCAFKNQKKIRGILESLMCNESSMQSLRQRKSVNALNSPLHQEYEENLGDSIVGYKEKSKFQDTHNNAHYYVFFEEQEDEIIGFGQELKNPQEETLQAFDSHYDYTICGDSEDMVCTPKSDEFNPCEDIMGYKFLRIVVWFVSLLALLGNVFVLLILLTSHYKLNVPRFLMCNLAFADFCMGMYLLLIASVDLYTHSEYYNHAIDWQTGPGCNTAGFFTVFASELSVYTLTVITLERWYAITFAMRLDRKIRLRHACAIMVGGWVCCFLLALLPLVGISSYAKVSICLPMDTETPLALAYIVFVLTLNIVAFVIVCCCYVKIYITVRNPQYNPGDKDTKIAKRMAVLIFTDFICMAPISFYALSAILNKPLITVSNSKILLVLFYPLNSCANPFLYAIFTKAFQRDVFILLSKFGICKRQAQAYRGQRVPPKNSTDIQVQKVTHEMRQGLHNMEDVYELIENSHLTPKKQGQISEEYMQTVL
# Biological target: Thyrotropin receptor (Homo sapiens) (UniProt P16473)
# Assay: Antagonists of the Thyroid Stimulating Hormone Receptor: HTS campaign
# Settings: TSHR-expressing cells, TSH-stimulated cAMP HTRF, 2 h; at 11.5 µM; stronger effect = lower value
# Excerpt: The thyroid-stimulating hormone receptor (TSHR) is a member of the 7 trans-membrane-spanning receptor (7TMR) family of cell surface receptors. TSHR-mediated hyperthyroidism is important in thyroid pathology. The development of small molecule antagonists of TSHR may lead to therapeutic approaches for TSHR-mediated hyperthyroidism caused by constitutively activating mutations or stimulating auto-antibodies associated with Graves' disease. Graves' disease is the leading cause of hyperthyroidism and is caused by autoantibodies that stimulate TSHR (TsAbs) causing thyroid growth and unregulated overproduction of thyroid hormones and existing treatments have liabilities (agranulocytosis). In addition, TSHRs are known to be expressed in multiple extrathyroidal tissues including bone, brain, kidney, testis, fat and cells of the immune system but the role of the TSHR in these tissues is not clear. Therefore, TSHR antagonists/inverse agonists could be used as probes of extrathyroidal TSHR function. Finally, TSHR inverse agonists, which are a subclass of antagonists that inhibit agonist-independent (or basal or constitutive) TSHR signaling, could be used to inhibit TSH-independent signaling in patients with recurrent or metastatic thyroid cancer who are receiving thyroid hormone to suppress TSH. In collaboration between scientist from the NCGC and the NIDDK, a miniaturized HTRF high-throughput screen was developed. It's a cell based assay, where an anti cAMP antibody contains a fluorescent cryptate tag (excitation 337 nm; emission 620 nm) and the acceptor is cAMP-d2 (excitation 620 nm; emission 665 nm). When antibody and cAMP-d2 interact and are excited by a 337 nm light, a FRET occurs resulting in emission at 665 nm. The assay is competition between cAMP-d2 and cAMP (from the cell lysate). The homogeneous protocol allows for one step dispense after stimulation that is automation friendly. NIH Chemical Genomics Center [NCGC] NIH Molecular Libraries Probe Centers Network [MLPCN] MLPCN Grant: MH090855-01 Assay Submitter (PI): Marvin Gerhengorn
# 1. 3ul of 200 TSHR freshly harvested cells/well are dispensed into a 1536 TC-treated white solid bottom plate. 2. Through pintool addition, 23nl of compounds and control in 100% DMSO are added to the plate. 3. Then 1ul of EC80 TSH (4nM final) is added to the plate. 4. Assay is incubated at 37 deg C for 2 hours. 5. 2ul of cAMP antibody diluted 1:20 in lysis buffer is added. 6. Immediately following, 2ul of d2 diluted 1:20 in HBSS is added seperately. 7. The assay is incubated for 30 minutes at ambient room temperature. 8. The result is obtained by using a ViewLux read-out with HTRF settings.
# % is scaled to controls: 0 for no effect and ±100 for the full control effect.
row,SMILES,"activity change, negative = inhibition"
1,O=[N+]([O-])c1cc([N+](=O)[O-])c(-n2nnc3ccccc32)c([N+](=O)[O-])c1,inactive: 6.6%
2,Cc1nc2ccc3ccccc3c2s1.O=[N+]([O-])c1cc([N+](=O)[O-])c(O)c([N+](=O)[O-])c1,inactive: -3.5%
3,O=[N+]([O-])c1cc([N+](=O)[O-])c(Nc2nnnn2CCO)c([N+](=O)[O-])c1,inactive: -19.2%
4,CN1CCCCC1COC(=O)C1(O)c2ccccc2CCc2ccccc21 (centres undefined),inactive: 2.69%
5,COc1ccccc1OP(C)(=O)Nc1c(C)cccc1C (centres undefined),inactive: -13.9%
6,CCCOc1ccc(NP(C)(=O)Oc2ccc(Cl)cc2)cc1 (centres undefined),inactive: -8.81%
7,CP(=O)(Nc1ccc(SC(F)(F)F)cc1)Oc1ccccc1 (centres undefined),inactive: -4.88%
8,CC1=NCCc2c1[nH]c1ccccc21.O=[N+]([O-])c1cc([N+](=O)[O-])c(O)c([N+](=O)[O-])c1,inactive: 8.35%
9,COc1ccccc1OP(C)(=O)Nc1cccc(Br)c1 (centres undefined),inactive: 2.57%
10,Cc1cc(C)cc(OP(C)(=O)Nc2ccc(C)cc2C)c1 (centres undefined),inactive: 1.37%
11,CCOC(=O)c1ccc(NP(C)(=O)Oc2cc(C)cc(C)c2)cc1 (centres undefined),inactive: 22.5%
12,Cc1cc(C)cc(OP(C)(=O)Nc2ccccn2)c1 (centres undefined),inactive: 1.24%
13,CP(=O)(Nc1cccc(Br)c1)Oc1ccccc1 (centres undefined),inactive: 25.3%
14,Cc1ccc(C)c(NP(C)(=O)Oc2ccccc2)c1 (centres undefined),inactive: 5.6%
15,CCN(CC)CCCOC(=O)C(O)(c1ccccc1)c1ccccc1,inactive: 12.4%
16,O=[N+]([O-])c1cc([N+](=O)[O-])c(Nc2cccnc2)c([N+](=O)[O-])c1,inactive: -22.9%
17,CC(C)(C)c1ccc(OP(C)(=O)Nc2ccc(SC(F)(F)F)cc2)cc1 (centres undefined),inactive: 7.95%
18,Cc1cccc(C)c1OP(C)(N)=O (centres undefined),inactive: 17.7%
19,O=[N+]([O-])c1ccc2c(c1)C=Nc1ccccc1O2,inactive: -3.91%
20,CCOC(=O)c1ccc(NP(C)(=O)Oc2ccccc2)cc1 (centres undefined),inactive: 0.355%
21,COc1ccccc1OP(C)(=O)Nc1ccc(C)cc1 (centres undefined),inactive: 8.34%
22,Cc1ccc(NP(C)(=O)Oc2ccccc2)c(C)c1 (centres undefined),inactive: 16.3%
23,COc1ccccc1OP(C)(=O)Nc1cc(Cl)ccc1C (centres undefined),inactive: -4.27%
24,COc1ccc(OP(C)(=O)Nc2cccc(F)c2)cc1 (centres undefined),inactive: -1.45%
25,Cc1cc(C)cc(OP(C)(N)=O)c1 (centres undefined),inactive: 6.31%
26,CP(=S)(Nn1cnnc1)Oc1ccccc1 (centres undefined),inactive: 4.83%
27,COc1ccccc1OP(C)(=O)Nc1ccccc1 (centres undefined),inactive: -1.24%

row,SMILES,"activity change, negative = inhibition"
1,CP(=O)(Nc1ccccc1Br)Oc1ccccc1 (centres undefined),inactive: 7.12%
2,CP(=O)(Nc1ccc(SC(F)(F)F)cc1)Oc1ccc(Cl)cc1 (centres undefined),inactive: -2.02%
3,Cc1cccc(C)c1OP(C)(=O)Nc1ccc(SC(F)(F)F)cc1 (centres undefined),inactive: -11.9%
4,CP(=O)(Oc1ccccc1)OC(c1ccccc1)C(F)(F)F (centres undefined),inactive: -12.2%
5,CP(=O)(NC(=O)Nc1ccccc1)Oc1ccccc1 (centres undefined),inactive: -1.46%
6,CCc1ccc(OP(C)(=O)N2CCN(c3ccc([N+](=O)[O-])cc3)CC2)cc1 (centres undefined),inactive: -1.48%
7,Cc1cc(C)cc(OP(C)(=O)Nc2ccc(SC(F)(F)F)cc2)c1 (centres undefined),inactive: -9.22%
8,CCOP(C)(=S)SCC(=O)NC(C)C(=O)O (centres undefined),inactive: 18.3%
9,CCOC(=O)c1ccc(NP(C)(=O)Oc2ccc(OC)cc2)cc1 (centres undefined),inactive: -7.13%
10,CCN(CC)CC(O)COC(=O)C(O)(c1ccccc1)C1CCCCC1 (centres undefined),inactive: -2.56%
11,COc1ccc(OP(C)(=O)Nc2ccc(Br)cc2)cc1 (centres undefined),inactive: 5.78%
12,CP(=O)(Oc1ccccc1)N1CCOC1=O (centres undefined),inactive: 10.7%
13,CCc1ccc(OP(C)(=O)Nc2cccnc2)cc1 (centres undefined),inactive: 2.49%
14,COc1ccccc1OP(C)(=O)Nc1c(C)n(C)n(-c2ccccc2)c1=O (centres undefined),inactive: -9.14%
15,O=C(OCCCN1CCCC1)C(O)(c1ccccc1)C1CCCCC1 (centres undefined),inactive: 33.7%
16,CP(=O)(Nc1ccc(Cl)cc1)Oc1ccc(F)cc1 (centres undefined),inactive: -14.2%
17,COc1ccccc1OP(C)(=O)Nc1ccccc1Br (centres undefined),inactive: -9.23%
18,CC(C)(C)c1ccc(OP(C)(=O)O)cc1,inactive: -2.96%
19,CN(C)C(=O)c1c([N+](=O)[O-])cc([N+](=O)[O-])cc1[N+](=O)[O-],inactive: 7.59%
20,CP(=O)(OC12CC3CC(CC(C3)C1)C2)OC12CC3CC(CC(C3)C1)C2,inactive: -0.643%
21,CCOC(=O)c1ccc(NP(C)(=O)Oc2ccc(Cl)cc2)cc1 (centres undefined),inactive: 1.58%
22,Cc1cc(C)cc(OP(C)(=O)Nc2cccc(C(F)(F)F)c2)c1 (centres undefined),inactive: -7.29%
23,COc1ccc(OP(C)(=O)Nc2ccccc2Br)cc1 (centres undefined),inactive: 17.2%
24,COc1ccccc1OP(C)(=O)Nc1ccc(C)c(C)c1 (centres undefined),inactive: 13.7%
25,Cc1nc2ccc3ccccc3c2o1.O=[N+]([O-])c1cc([N+](=O)[O-])c(O)c([N+](=O)[O-])c1,inactive: 7.28%
26,CP(=O)(Nc1ccc(Cl)cc1Cl)Oc1ccccc1 (centres undefined),inactive: 1.95%
27,CP(=O)(OCCOc1ccccc1)OCCOc1ccccc1,inactive: 3.08%

row,SMILES,"activity change, negative = inhibition"
1,COc1ccccc1OP(C)(=O)Nc1ccc(Br)cc1 (centres undefined),inactive: -4.45%
2,CN(C)CCOC(=O)C(O)(c1ccccc1)C1CCCC1 (centres undefined),inactive: 3.04%
3,COc1ccc(OP(C)(=O)Nc2ccccn2)cc1 (centres undefined),inactive: 5.8%
4,Cc1c(NP(C)(=O)Oc2ccc(C(C)C)cc2)c(=O)n(-c2ccccc2)n1C (centres undefined),inactive: 9.51%
5,O=[N+]([O-])c1cc([N+](=O)[O-])c(Nc2ccccn2)c([N+](=O)[O-])c1,inactive: 6.35%
6,CCc1ccc(OP(C)(=O)O)cc1,inactive: 14.4%
7,CP(=O)(Nc1ccccn1)Oc1ccccc1 (centres undefined),inactive: -3.03%
8,COc1ccccc1OP(C)(=O)Nc1ccc(C)cc1C (centres undefined),inactive: 0.962%
9,CC(C)c1ccc(OP(C)(=O)Nc2ccc(SC(F)(F)F)cc2)cc1 (centres undefined),inactive: 2.85%
10,CP(=O)(Nc1ccccc1F)Oc1ccccc1 (centres undefined),inactive: -1.66%
11,O=C(OCCN1CCN(CCOCc2ccccc2)CC1)C(O)(c1ccccc1)c1ccccc1,inactive: 3.21%
12,COc1ccc(OP(C)(=O)Nc2ccc(SC(F)(F)F)cc2)cc1 (centres undefined),inactive: 13.6%
13,CCOC(=O)c1ccc(NP(C)(=O)Oc2ccc(F)cc2)cc1 (centres undefined),inactive: -16.1%
14,CCN(CC)CCCOC(=O)C(O)(c1ccccc1)C1CCCCC1 (centres undefined),inactive: -13.9%
15,CCCCCOc1ccc(NP(C)(=O)Oc2ccc(Cl)cc2Cl)cc1 (centres undefined),inactive: 1.01%
16,CP(=O)(Nc1ccccc1)Oc1ccc(F)cc1 (centres undefined),inactive: 12.8%
17,COc1ccc(OP(C)(=O)Nc2cccc(Br)c2)cc1 (centres undefined),inactive: -0.488%
18,COc1ccc(NP(C)(=O)Oc2ccccc2OC)cc1 (centres undefined),inactive: 8.37%
19,CN(C)CCOC(=O)C(O)(c1ccccc1)C1CCCCC1 (centres undefined),inactive: 0.812%
20,Cc1cc(-c2cccc3ccccc23)c(C)cn1.O=[N+]([O-])c1cc([N+](=O)[O-])c(O)c([N+](=O)[O-])c1,inactive: -5.31%
21,O=[N+]([O-])c1ccc(OP2(=O)COCCO2)cc1 (centres undefined),inactive: 5.93%
22,CP(=O)(Nc1ccc(SC(F)(F)F)cc1)Oc1ccc(F)cc1 (centres undefined),inactive: -12.2%
23,CCOP(C)(=S)SCC(=O)NC(C)(CC)C(=O)O (centres undefined),inactive: 1.02%
24,CP(=O)(Nc1ccc2c(c1)OCCO2)Oc1ccccc1 (centres undefined),inactive: 0.182%
25,Cc1ccccc1NP(C)(=O)Nc1ccccc1C,inactive: 9.71%

# — PubChem BioAssay AID504810 (National Center for Advancing Translational Sciences (NCATS), 2011)
